A short description of this data set: Small angle x-ray diffraction of cholesterol-enriched reconstituted membranes (cholesterol domain formation). The data set is classed as physicochemical. Conditions: 1.1:1 cholesterol to phospholipid mole ratio, 5° C., 74% relative humidity.

Turning to `CCOC(=O)C1=C(COCCN)NC(C)=C(C(=O)OC)C1c1ccccc1Cl` (stereo not shown) [AML, Amlodipine besylate], the “d-space of surrounding sterol-poor membrane region” value was 54.4 Å.

These data come from patent US6835742B2, “Synergistic effect of amlodipine and atorvastatin on cholesterol crystal formation inhibition and aortic endothelial cell nitric oxide release” (priority 2000, dated 2004).
